Data taken from ChEMBL document CHEMBL5344485, “Discovery of CRN04894: A Novel Potent Selective MC2R Antagonist” (ACS Med Chem Lett, 2024).

Protein sequences, listed by entry. Tags and fused reporters are not part of them. Lines headed by an entry give the natural chain unless they say otherwise; changes in a name come on top.
UniProt Q01718: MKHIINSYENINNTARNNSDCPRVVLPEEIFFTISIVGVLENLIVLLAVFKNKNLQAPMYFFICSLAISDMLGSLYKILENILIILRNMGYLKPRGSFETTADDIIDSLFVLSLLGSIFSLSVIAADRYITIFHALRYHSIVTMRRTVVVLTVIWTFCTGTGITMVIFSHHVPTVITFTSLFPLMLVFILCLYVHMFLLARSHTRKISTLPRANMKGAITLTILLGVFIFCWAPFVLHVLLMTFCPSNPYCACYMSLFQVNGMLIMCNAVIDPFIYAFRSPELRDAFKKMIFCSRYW

Legend:
[1] = biological target: Adrenocorticotropic hormone receptor (Homo sapiens, UniProt Q01718); settings: CHO-K1, Membrane, filed as antagonist, time 60.0 min
CHO-K1 [2] = settings: Rattus norvegicus, Membrane, filed as antagonist, time 60.0 min
CHO-K1 [3] = settings: Canis lupus familiaris, Membrane, filed as antagonist, time 30.0 min
in vitro [4] = settings: human, liver microsomes
in vivo [5] = settings: rat, po, 10 mg/kg
in vivo [6] = settings: rat, po, 10 mg/kg; remark: listed apart in the source
in vitro [7] = settings: rat, liver microsomes

pKb [1] | Structure (SMILES) | also measured
9.5 | CCOc1ncccc1-c1ccc(N2CCN(C(=O)C34CCC(C(F)(F)F)(CC3)CC4)C[C@H]2CC)c(C(=O)N[C@@H]2CCN(C)C2)n1 | –
6.5 | C[C@@H]1CN(C(=O)c2ccc(C(F)(F)F)cc2Cl)CCN1c1ccc(C(F)(F)F)cc1CN | –
7.6 | CC[C@@H]1CN(C(=O)c2ccc(C(F)(F)F)cc2Cl)CCN1c1ccc(C(F)(F)F)cc1C(=O)NCCN | pKb (CHO-K1 [2]): 7.1

Second part, the compound before the results:

Structure (SMILES) | pKb [1] | also measured
CCOc1ncccc1-c1ccc(N2CCN(C(=O)C3(C(F)(F)F)CCC3)C[C@H]2CC)c(C(=O)N[C@@H]2CCN(C)C2)n1 | 8.9 | –
CCOc1ccccc1-c1ccc(N2CCN(C(=O)C3(C(F)(F)F)CCC3)C[C@H]2CC)c(C(=O)N[C@@H]2CCN(C)C2)n1 | 8.8 | –
CCOc1ccccc1-c1ccc(N2CCN(C(=O)C3(C(F)(F)F)CCC3)C[C@H]2CC)c(C(=O)N[C@@H]2CN3CCC2CC3)n1 [ATUMELNANT] | 9.5 | pKb (CHO-K1 [2]): 9.6; pKb (CHO-K1 [3]): 9.6
CC[C@@H]1CN(C(=O)c2ccc(C(F)(F)F)cc2Cl)CCN1c1ccc(C(F)(F)F)cc1CN | 7.7 | –
CCOc1ncccc1-c1ccc(N2CCN(C(=O)C3(C(F)(F)F)CCCC3)C[C@H]2CC)c(C(=O)N[C@@H]2CCN(C)C2)n1 | 8.9 | –
CC1CN(c2ccc(C(F)(F)F)cc2CN)CCN1C(=O)c1ccc(Cl)cc1Cl (centres undefined) | 6.1 | –
CC[C@@H]1CN(C(=O)c2ccc(C(F)(F)F)cc2Cl)CCN1c1ccc(C(F)(F)F)cc1CNC[C@H](C)O | 7.6 | pKb (CHO-K1 [2]): 6.6
CCOc1ncccc1-c1ccc(N2CCN(C(=O)c3ccc(Cl)cc3C(F)(F)F)C[C@H]2CC)c(C(=O)NCCNC)n1 | – | half-life (in vitro [4]): > 11.6 h; half-life (in vivo [5]): 2.7 h; AUC(0-t) (in vivo [6]): 0.334 µM·h; half-life (in vitro [7]): 3.85 h
CC1CN(C(=O)c2ccc(Cl)cc2Cl)CCN1c1ccc(C(F)(F)F)cc1CN (centres undefined) | 6.4 | –
